# Values of other authors as cited in patent US20040248869A1, “Method for finding novel active ingredients having androgen-type properties” (priority 2001, published 2004).
# Tested on: human skin cells
# Conditions: differentiation of human skin cells; cited from earlier work
smiles,measurement,value
"C[C@]12CC[C@H]3[C@@H](CCC4=CC(=O)CC[C@@]43C)[C@@H]1CC[C@@H]2O [T, testosterone]","volume of the epidermis tissue, cell size, number of keratin filaments",does not influence
